Data from patent US20140100156A1 (SANOFI, priority 2012, published 2014).

Protein sequences, listed by entry. Tags and fused reporters are not part of them. Residues count along the entry.
UniProt P43220, 24-463: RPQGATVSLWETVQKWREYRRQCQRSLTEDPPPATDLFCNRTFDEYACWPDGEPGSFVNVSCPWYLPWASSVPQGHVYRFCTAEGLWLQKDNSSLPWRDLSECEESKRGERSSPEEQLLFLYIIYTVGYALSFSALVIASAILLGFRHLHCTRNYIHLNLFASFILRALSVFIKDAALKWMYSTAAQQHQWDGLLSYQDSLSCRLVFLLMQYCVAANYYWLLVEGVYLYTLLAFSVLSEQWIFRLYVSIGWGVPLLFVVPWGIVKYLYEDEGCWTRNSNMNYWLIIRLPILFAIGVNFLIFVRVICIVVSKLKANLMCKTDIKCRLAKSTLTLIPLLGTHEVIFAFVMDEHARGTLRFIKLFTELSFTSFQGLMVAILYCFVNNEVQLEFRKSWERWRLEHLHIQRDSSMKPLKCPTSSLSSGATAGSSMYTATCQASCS
UniProt P47871, 26-477: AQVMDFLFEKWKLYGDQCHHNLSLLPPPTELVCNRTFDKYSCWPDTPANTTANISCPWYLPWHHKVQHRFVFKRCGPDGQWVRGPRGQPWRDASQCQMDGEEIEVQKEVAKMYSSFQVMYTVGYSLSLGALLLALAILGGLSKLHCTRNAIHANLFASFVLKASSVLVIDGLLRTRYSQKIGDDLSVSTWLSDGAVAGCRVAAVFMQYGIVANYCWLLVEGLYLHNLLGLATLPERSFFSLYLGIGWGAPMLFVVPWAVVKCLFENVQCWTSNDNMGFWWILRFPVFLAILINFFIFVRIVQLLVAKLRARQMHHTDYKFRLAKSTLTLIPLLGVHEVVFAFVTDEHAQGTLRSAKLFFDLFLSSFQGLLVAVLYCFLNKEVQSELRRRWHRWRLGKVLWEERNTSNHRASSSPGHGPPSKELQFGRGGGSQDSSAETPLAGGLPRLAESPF

How the values were obtained:
[1] = molecular target: T1, human GLP-1 receptor (Homo sapiens, UniProt P43220); assay: cAMP response (HTRF) of HEK-293 cells stably expressing human GLP-1 receptor; format: cell-based; settings: Table 5; cAMP, HEK-293; read-out: EC50 hGLP-1R
T1 construct: expressed in transfected cells; host or cells: HEK-293

[2] = molecular target: T2, human glucagon receptor (Homo sapiens, UniProt P47871); assay: cAMP response (HTRF) of HEK-293 cells stably expressing human glucagon receptor; format: cell-based; settings: Table 5; cAMP, HEK-293; read-out: EC50 hGlucagon-R
T2 construct: expressed in transfected cells; host or cells: HEK-293

Row | Compound | EC50 [1] [pM] | EC50 [2] [pM]
1 | CCCCCCCCCCCCCCCC(=O)N[C@@H](CCC(=O)NCCCC[C@H](NC(=O)[C@H](CCC(N)=O)NC(=O)[C@H](CCCCN)NC(=O)[C@H](CO)NC(=O)[C@H](CC(C)C)NC(=O)[C@H](CC(=O)O)NC(=O)[C@H](CO)NC(=O)[C@@H](NC(=O)[C@H](Cc1ccccc1)NC(=O)[C@@H](NC(=O)CNC(=O)[C@H](CCC(N)=O)NC(=O)[C@@H](CO)NC(=O)[C@@H](N)Cc1c[nH]cn1)[C@@H](C)O)[C@@H](C)O)C(=O)N[C@@H](CCC(=O)O)C(=O)N[C@@H](CO)C(=O)N[C@@H](CCCNC(=N)N)C(=O)N[C@@H](CCCNC(=N)N)C(=O)N[C@@H](C)C(=O)N[C@@H](CCC(N)=O)C(=O)N[C@@H](CC(=O)O)C(=O)N[C@@H](Cc1ccccc1)C(=O)N[C@H](C(=O)N[C@@H](CCC(=O)O)C(=O)N[C@@H](Cc1c[nH]c2ccccc12)C(=O)N[C@@H](CC(C)C)C(=O)N[C@@H](CCCCN)C(=O)N[C@@H](CCCNC(=N)N)C(=O)NCC(=O)NCC(=O)N1CCC[C@H]1C(=O)N[C@@H](CO)C(=O)N[C@@H](CO)C(=O)NCC(=O)N[C@@H](C)C(=O)N1CCC[C@H]1C(=O)N1CCC[C@H]1C(=O)N1CCC[C@H]1C(=O)N[C@@H](CO)C(N)=O)[C@@H](C)CC)C(=O)O [compound 127] | 14.7 | 9.4
2 | CCCCCCCCCCCCCCCC(=O)N[C@@H](CCC(=O)NCCCC[C@H](NC(=O)[C@H](CCC(N)=O)NC(=O)[C@H](CCCCN)NC(=O)[C@H](CO)NC(=O)[C@H](CC(C)C)NC(=O)[C@H](CC(=O)O)NC(=O)[C@H](CO)NC(=O)[C@@H](NC(=O)[C@H](Cc1ccccc1)NC(=O)[C@@H](NC(=O)CNC(=O)[C@H](CCC(N)=O)NC(=O)[C@@H](CO)NC(=O)[C@@H](N)Cc1c[nH]cn1)[C@@H](C)O)[C@@H](C)O)C(=O)N[C@@H](CC(=O)O)C(=O)N[C@@H](CO)C(=O)N[C@@H](CCCNC(=N)N)C(=O)N[C@@H](CCCNC(=N)N)C(=O)N[C@@H](C)C(=O)N[C@@H](CCC(N)=O)C(=O)N[C@@H](CC(=O)O)C(=O)N[C@@H](Cc1ccccc1)C(=O)N[C@H](C(=O)N[C@@H](CCC(=O)O)C(=O)N[C@@H](Cc1c[nH]c2ccccc12)C(=O)N[C@@H](CC(C)C)C(=O)N[C@@H](CCCCN)C(=O)N[C@@H](CO)C(=O)NCC(=O)NCC(=O)N1CCC[C@H]1C(=O)N[C@@H](CO)C(=O)N[C@@H](CO)C(=O)NCC(=O)N[C@@H](C)C(=O)N1CCC[C@H]1C(=O)N1CCC[C@H]1C(=O)N1CCC[C@H]1C(=O)N[C@@H](CO)C(N)=O)[C@@H](C)CC)C(=O)O [compound 128] | 6.2 | 1.6
3 | CCCCCCCCCCCCCCCC(=O)N[C@@H](CCC(=O)NCCCC[C@H](NC(=O)[C@H](CCC(N)=O)NC(=O)[C@H](CCCCN)NC(=O)[C@H](CO)NC(=O)[C@H](CC(C)C)NC(=O)[C@H](CC(=O)O)NC(=O)[C@H](CO)NC(=O)[C@@H](NC(=O)[C@H](Cc1ccccc1)NC(=O)[C@@H](NC(=O)CNC(=O)[C@H](CCC(N)=O)NC(=O)[C@@H](CO)NC(=O)[C@@H](N)Cc1c[nH]cn1)[C@@H](C)O)[C@@H](C)O)C(=O)N[C@@H](CCC(=O)O)C(=O)N[C@@H](CO)C(=O)N[C@@H](CCCNC(=N)N)C(=O)N[C@@H](CCCNC(=N)N)C(=O)N[C@@H](C)C(=O)N[C@@H](CCC(N)=O)C(=O)N[C@@H](CC(=O)O)C(=O)N[C@@H](Cc1ccccc1)C(=O)N[C@H](C(=O)N[C@@H](CCC(=O)O)C(=O)N[C@@H](Cc1c[nH]c2ccccc12)C(=O)N[C@@H](CC(C)C)C(=O)N[C@@H](CCCCN)C(=O)N[C@@H](CO)C(=O)NCC(=O)NCC(=O)N1CCC[C@H]1C(=O)N[C@@H](CO)C(=O)N[C@@H](CO)C(=O)NCC(=O)N[C@@H](C)C(=O)N1CCC[C@H]1C(=O)N1CCC[C@H]1C(=O)N1CCC[C@H]1C(=O)N[C@@H](CO)C(N)=O)[C@@H](C)CC)C(=O)O [compound 129] | 14.8 | 4.1
